# From paper PMC4468146
# Biological target: human glucagon receptor (GCGR), C-terminal Flag-tagged (human) (UniProt P47871)
substance,measurement,value
glucagon (ligand),"intracellular cAMP (ELISA) in GCGR-Flag transfected CHO cells, glucagon 0.001 nM to 100 nM for 30 minutes",0.41 nM
